Assay: Dissolution test of poorly-soluble substances using 2nd fluid for disintegration test (pH 6.8) of the Japanese Pharmacopoeia
Type: physicochemical

`CC(=O)SC[C@@H](C)C(=O)N1CCC[C@H]1C(=O)N[C@@H](Cc1ccccc1)C(=O)O` [compound 24, Alacepril] showed a Dissolved amount (elution time 10 min) of 2514.7 µg/mL, a Dissolved amount (elution time 120 min) of 2588.4 µg/mL and a Dissolved amount (elution time 360 min) of 2548.2 µg/mL.

`CCCCCCC(=O)O[C@H]1CC[C@H]2[C@@H]3CCc4cc(O)ccc4[C@H]3CC[C@]12C` [compound 44, Estradiol Enanthate] gave a Dissolved amount (Estradiol Enanthate, elution time 10 min) of 10.2 µg/mL.
